Earlier results in US20090221522A1, “METHODS TO CORRECT GENE SET EXPRESSION PROFILES TO DRUG SENSITIVITY” (The Johns Hopkins University, priority 2008, published 2009).

Test system: Her2-positive breast cancer
Settings: Her2-positive breast cancer patients; cited from earlier work

For trastuzumab, the objective response is listed as “about 34%”.
